Measured values published in patent US20030171347A1, “Sigma receptor antagonists having anti-cocaine properties and uses thereof” (priority 1998, published 2003).

Molecular target: opiate receptors (Rattus norvegicus, UniProt P34975)
Assay: Opiate receptor competition binding
Settings: read-out: Opiate; rat brain homogenates, [3H]etorphine or [3H]bremazocine

## CN1CCN(CCc2ccc(Cl)c(Cl)c2)CC1 [BD1063]
  IC50: > 10 µM
